# Reference: PMC7604503, “Cyclic peptides can engage a single binding pocket through highly divergent modes” (Proceedings of the National Academy of Sciences of the …, 2020)
# Chains of the proteins cited; added tags and fusions are not shown.
# UniProt P51532, whole entry: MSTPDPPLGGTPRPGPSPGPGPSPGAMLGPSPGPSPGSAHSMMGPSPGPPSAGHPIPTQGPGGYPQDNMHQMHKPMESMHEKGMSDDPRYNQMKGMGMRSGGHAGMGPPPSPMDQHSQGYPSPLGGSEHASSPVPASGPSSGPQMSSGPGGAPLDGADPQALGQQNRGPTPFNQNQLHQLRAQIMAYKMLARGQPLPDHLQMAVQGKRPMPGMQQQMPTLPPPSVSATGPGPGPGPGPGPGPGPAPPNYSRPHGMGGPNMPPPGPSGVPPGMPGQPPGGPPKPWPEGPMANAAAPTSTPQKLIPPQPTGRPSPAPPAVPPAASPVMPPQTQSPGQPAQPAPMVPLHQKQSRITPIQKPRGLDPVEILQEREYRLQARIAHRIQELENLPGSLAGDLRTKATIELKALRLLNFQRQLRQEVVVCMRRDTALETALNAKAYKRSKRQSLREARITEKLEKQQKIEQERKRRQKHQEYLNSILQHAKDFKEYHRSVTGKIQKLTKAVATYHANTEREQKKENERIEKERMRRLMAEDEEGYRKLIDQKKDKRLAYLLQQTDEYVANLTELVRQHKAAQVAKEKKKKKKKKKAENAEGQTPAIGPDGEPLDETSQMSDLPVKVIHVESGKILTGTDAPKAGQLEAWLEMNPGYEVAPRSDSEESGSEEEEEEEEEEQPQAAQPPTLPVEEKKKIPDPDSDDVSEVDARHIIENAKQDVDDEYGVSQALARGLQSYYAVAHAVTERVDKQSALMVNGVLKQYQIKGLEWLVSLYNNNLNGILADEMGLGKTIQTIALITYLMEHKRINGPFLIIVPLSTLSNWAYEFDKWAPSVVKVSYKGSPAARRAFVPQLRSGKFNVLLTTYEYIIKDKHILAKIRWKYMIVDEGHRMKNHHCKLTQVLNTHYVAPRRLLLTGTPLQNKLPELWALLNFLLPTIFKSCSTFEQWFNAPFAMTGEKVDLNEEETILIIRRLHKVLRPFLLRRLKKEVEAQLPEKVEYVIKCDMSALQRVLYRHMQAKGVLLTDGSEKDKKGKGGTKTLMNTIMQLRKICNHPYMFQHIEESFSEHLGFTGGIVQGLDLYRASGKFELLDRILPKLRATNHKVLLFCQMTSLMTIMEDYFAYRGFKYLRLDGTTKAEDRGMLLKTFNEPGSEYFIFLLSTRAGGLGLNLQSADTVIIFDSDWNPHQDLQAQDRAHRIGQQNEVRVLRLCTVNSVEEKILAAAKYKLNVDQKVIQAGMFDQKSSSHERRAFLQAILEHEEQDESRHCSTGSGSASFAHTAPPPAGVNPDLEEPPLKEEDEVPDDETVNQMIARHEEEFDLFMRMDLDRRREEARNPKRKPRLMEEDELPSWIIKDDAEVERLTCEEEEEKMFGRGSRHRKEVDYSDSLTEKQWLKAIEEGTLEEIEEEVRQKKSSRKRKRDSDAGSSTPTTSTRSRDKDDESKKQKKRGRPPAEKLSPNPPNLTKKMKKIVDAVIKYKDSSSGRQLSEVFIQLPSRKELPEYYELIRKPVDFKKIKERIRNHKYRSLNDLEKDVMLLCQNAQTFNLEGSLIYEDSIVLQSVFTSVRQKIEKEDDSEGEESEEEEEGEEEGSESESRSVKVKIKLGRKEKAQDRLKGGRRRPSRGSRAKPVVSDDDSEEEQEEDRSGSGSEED
# Tests used:
# [1] = tested on: BD2 domains (BRD2-BD2, BRD3-BD2, BRD4-BD2); test: SPR binding, stated for the BD2 domains together; design: species or system human
# [2] = target: SMARCA4 (Homo sapiens, UniProt P51532); test: biochemical; settings: read-out: Percent Control SMARCA4
structure (smiles),measurement,setting,value
CC[C@H](C)[C@H](NC(=O)[C@H](CCCNC(=N)N)NC(=O)[C@H](CCCCNC(C)=O)NC(=O)[C@H](CCCNC(=N)N)NC(=O)[C@H](CC(C)C)NC(=O)[C@@H]1CSCC(=O)N[C@@H](Cc2c[nH]c3ccccc23)C(=O)N[C@@H](CCCCNC(C)=O)C(=O)NCC(=O)N[C@@H](Cc2ccc(O)cc2)C(=O)N[C@@H](CC(C)C)C(=O)N1)C(=O)N[C@@H](CCC(N)=O)C(=O)N[C@@H](CCCNC(=N)N)C(=O)N[C@H](C(=O)N[C@@H](Cc1ccc(O)cc1)C(=O)N[C@@H](CC(N)=O)C(N)=O)[C@@H](C)O [4.2C],selectivity for BD2 domains over BD1 domains (in words),[1],significant selectivity
same,remaining activity at 1 µM,[2],63%
